Bioassay records as filed in PubChem.
An excerpt weighted towards active compounds, which were near 2.3% of everything screened.
Nrf2 activator – activators of Nrf2 (ARE) signaling; AREc32 ARE-luciferase reporter (MCF7-derived line), luminescence, 24 h; Potency, µM (highest dose often 46.1 µM), for the others: top-dose activation, usual class: activators; AID 624171; hit rate 0.31% among 410,000; further: % of control where 0% means no effect; nearly all actives have a fitted effect of over 65% in size
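AREc32 cells carrying an ARE-driven firefly luciferase reporter were seeded at 1000 cells/well in OPTI-MEM with 5% FBS, then exposed to compound for 24 hr at 37 deg C. Luminescence was read with Steady-Glo after 30 min at RT.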
Rango-impB inh – inhibitors of Rango-importin beta complex formation. Q14974. hit rate 0.031% among 340,000. AID 540263. Potency, µM (highest dose often 92.2 µM), without a hit: top-dose inhibition of complex formation. Rango CFP/YFP FRET sensor + importin beta, 45 min; calls by dose curve;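 further: 0% = DMSO wells and 100% = buffer wells lacking importin beta; nearly all actives have a fitted effect of over 15% in size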
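FRET biosensor (snurportin 1 IBB flanked by EYFP and cerulean), 50 nM, with compound 5 min, then 0.125 microM importin beta in PBS, 1 mM DTT, 0.02% Tween-20, 0.1% BSA. CFP/YFP ratio read after 45 min at room temperature; pre-read flags interference.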
Nrf2 inh – blocks Nrf2 signaling; AID 504444; hit rate 2.1% among 360,000; A549 ARE-Fluc reporter, luciferase luminescence, 18-24 h; Potency, µM (highest dose often 46 µM), without a hit: at the highest dose activity change, negative = inhibition, most hits filed as inhibitors; further: on the % scale 0 is the no-effect control and ±100 the full control effect; nearly all actives have a fitted effect of over 60% in size
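Reporter: ARE-Fluc in A549. Exposure: 18-24 h, 37 °C, 5% CO2, 5% FBS OPTI-MEM. Readouts: fluorescent cytotoxicity (CellTiter-Fluor), then luminescent Nrf2 signal after BugLite.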
A549 viability – kills or reduces viability of A549 cells in Nrf2 counter-screen; A549 ARE-Fluc cells, CellTiter-Fluor viability, 18-24 h; Potency, µM (highest dose often 46 µM), without a hit: at the highest dose activity change, negative = cytotoxicity, usual class: inhibitors; hit rate 0.16% among 390,000; AID 504648; further: on the % scale 0 is the no-effect control and ±100 the full control effect
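Cytotoxicity counterscreen: CellTiter-Fluor fluorescence was measured in A549 ARE_Fluc cells after 18-24 h of compound exposure in a concentration series. The subsequent BugLite luminescent read reports ARE-luciferase activity.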
Rango release inh – prevents RanGTP from dissociating the Rango-importin beta complex; hit rate 0.071% among 340,000; Biochemical FRET Rango-importin beta, RanGTP-induced dissociation; AID 540253; Potency, µM (top dose mostly 46.1 µM), inactives show at the highest dose activity change, negative = inhibition; calls by dose curve; further: % of control where 0% means no effect; nearly all actives have a fitted effect of over 45% in size
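Compounds preincubate 5 min with complex of recombinant Rango and importin beta in PBS with 1 mM DTT. Ran (0.6 uM) loaded with 2 mM GTP plus 0.2 uM RCC1 starts dissociation; FRET is recorded 45 min later.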
An asterisk follows results filed as active; ? = inconclusive; . = no result. Unless noted, the call rests on the fitted dose curve; in most records, active means well fitted curve in the direction sought with a large enough effect; inconclusive means small, poorly fitted or top-dose-only effect, or another doubt; inactive means no such curve, though single readings can be large; an effect the other way counts as inactive or inconclusive. Potency means the concentration at half of the fitted maximal effect.

#1 O=C(Nc1cccc(S(=O)(=O)N2CCCCCC2)c1)c1cc(=O)c2ccccc2o1
#2 COc1ccc(CNC(=O)c2cc(=O)c3ccccc3o2)cc1
#3 COc1ccc(-c2nc3cccc(C)n3c2Nc2ccc(C)cc2)cc1
#4 NC(=O)c1nc(Nc2ccccc2)sc1NC(=O)c1ccccc1Br
#5 CCCNC(=O)Cc1c(C)n(C(=O)c2ccc(Cl)cc2)c2ccc(OC)cc12
#6 CN(C)S(=O)(=O)c1cccc(CSCc2cccc(S(=O)(=O)N(C)C)c2)c1
assay / compound | 1 | 2 | 3 | 4 | 5 | 6
Nrf2 activator | 9% | -1% | . | ? | 0% | 0%
Rango-impB inh | 2% | 4% | . | . | 2% | -1%
Nrf2 inh | 18µM* | 13µM* | -6% | . | 18µM* | 6.5µM*
A549 viability | -14% | 3% | -4% | 10% | -20% | 6%
Rango release inh | 5% | -15% | . | . | -6% | -7%

Among those listed so far, 3 contain sulfur:
#1 O=C(Nc1cccc(S(=O)(=O)N2CCCCCC2)c1)c1cc(=O)c2ccccc2o1
#4 NC(=O)c1nc(Nc2ccccc2)sc1NC(=O)c1ccccc1Br
#6 CN(C)S(=O)(=O)c1cccc(CSCc2cccc(S(=O)(=O)N(C)C)c2)c1
assay / compound | 1 | 4 | 6
Nrf2 activator | 9% | ? | 0%
Rango-impB inh | 2% | . | -1%
Nrf2 inh | 18µM* | . | 6.5µM*
A549 viability | -14% | 10% | 6%
Rango release inh | 5% | . | -7%

The listing continues:
#7 Cc1ccc(C)c(N2CCN(c3nc4ccccc4c4nc(CCn5nc(C)cc5C)nn34)CC2)c1
#8 Cc1cc(C)n(-c2nc3ccccc3nc2Nc2cc(Cl)ccc2C)n1
#9 CCN(CC)c1nc2ccccc2nc1-n1nc(C)cc1C
#10 CC(=O)/C=C\c1ccccc1OC(=O)c1cc2ccccc2oc1=O
#11 O=C(/C=C\c1ccccc1OC(=O)c1ccccc1F)c1cc2ccccc2o1
#12 O=C(Cn1cc(S(=O)(=O)Cc2ccc(F)cc2)c2ccccc21)NCc1ccccc1
assay / compound | 7 | 8 | 9 | 10 | 11 | 12
Nrf2 activator | 0% | 2% | 0% | 16% | 11µM* | 0%
Rango-impB inh | . | . | ? | 2% | 4% | .
Nrf2 inh | 8% | 16% | -3% | 3% | ? | -9%
A549 viability | 4% | 1% | 1% | -1% | ? | 8%
Rango release inh | . | . | 15µM* | 36% | -6% | .

#13 Cc1ccc(CNc2ccc([N+](=O)[O-])cc2C(N)=O)cc1
#14 Cc1ccc(Oc2c(C(N)=O)cc([N+](=O)[O-])cc2[N+](=O)[O-])cc1
#15 Cc1ccc(Cn2ncc3c(N4CCN(c5ccccc5C)CC4)ncnc32)cc1
#16 Clc1ccccc1-c1nc(-c2ccncc2)no1
#17 c1ccc(-c2ccccc2-c2nc(-c3ccncc3)no2)cc1
#18 c1ccc(-c2ccc(-c3nc(-c4cccnc4)no3)cc2)cc1
assay / compound | 13 | 14 | 15 | 16 | 17 | 18
Nrf2 activator | 9% | -3% | -1% | 11µM* | 3% | 1%
Rango-impB inh | 7% | -1% | -1% | 0% | 1% | 1%
Nrf2 inh | 20% | 5.8µM* | 21µM* | ? | -15% | ?
A549 viability | -11% | 4.1µM* | ? | -7% | 12% | 21%
Rango release inh | 21% | 12% | 6% | -19% | ? | -12%

#19 c1ccc(C(Cc2nc(-c3ccncc3)no2)c2ccccc2)cc1
#20 Clc1ccccc1-c1nc(-c2cccnc2)no1
#21 c1ccc(-c2noc(-c3cccnc3)n2)cc1
#22 Cc1ccccc1-c1nc(-c2cccnc2)no1
#23 CCc1nc(-c2ccc(C)c(S(=O)(=O)N3CCN(c4ccc(C(C)=O)cc4)CC3)c2)no1
#24 O=S(=O)(NCCS(=O)(=O)N1CCN(c2ccccc2)CC1)c1ccc(Br)cc1
assay / compound | 19 | 20 | 21 | 22 | 23 | 24
Nrf2 activator | 3% | ? | 3.2µM* | 13µM* | 0% | -1%
Rango-impB inh | 1% | 2% | 2% | -5% | . | .
Nrf2 inh | 8.2µM* | ? | ? | ? | . | .
A549 viability | -15% | -28% | 0% | -5% | 8% | 12%
Rango release inh | 7% | 6% | 0% | 6% | . | .

#25 c1ccc(-c2nc(-c3ccncc3)no2)cc1
#26 N#Cc1nc(Nc2cc(F)cc(F)c2)c2ncn(CCO)c2n1
#27 CCOc1ccc(NC(=O)Cn2cc(S(=O)(=O)N3CCN(c4ccccc4F)CC3)c3ccccc3c2=O)cc1
#28 Cc1cc(C)c[n+](C2=C([O-])c3ccccc3C(=O)/C2=N\S(=O)(=O)c2cccs2)c1
#29 O=C1/C(=N\S(=O)(=O)c2cccs2)C([n+]2cccc(Cc3ccccc3)c2)=C([O-])c2ccccc21
#30 O=C1/C(=N\S(=O)(=O)c2cccs2)C([n+]2ccc(CCCc3ccccc3)cc2)=C([O-])c2ccccc21
#31 C/C(=N\NC(=O)C1COc2ccccc2O1)c1ccccn1 (centres undefined)
#32 C/C(=N\NC(=O)c1cccc(Br)c1)c1ccccn1
assay / compound | 25 | 26 | 27 | 28 | 29 | 30 | 31 | 32
Nrf2 activator | 11µM* | . | -1% | 0% | -1% | -1% | ? | ?
Rango-impB inh | -4% | . | . | -1% | 58µM* | 3% | 1% | 0%
Nrf2 inh | ? | -6% | 4% | 21µM* | ? | -22% | 9.2µM* | 2.3µM*
A549 viability | -11% | -20% | 0% | ? | ? | 9% | ? | ?
Rango release inh | 17% | . | . | 30% | 19% | 20% | 5% | 3%
